The list shows a part of the results, in another mix than the full data. The source made the active and inactive calls.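 How the source made its calls: active means viability at or below 40%; inactive means viability above 40%.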
Experiment: H69AR cell viability reduction – human, 86K library, primary screen (AID 598);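 further: multidrug resistant small cell line overexpressing MRP-1 efflux transporter; 100% = mean luminescence of untreated control wells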
Settings: H69AR lung tumor viability, ATP luminescence, 72 h; at 10 µM; hits give low values

Row | Structure (SMILES) | viability
1 | ClCCSc1nnc(-c2cccnc2)o1 | inactive: 93.1%
2 | O=C(OC1CN2CCC1CC2)C12CC3CC(CC(C3)C1)C2 (configuration not stated) | inactive: 96.3%
3 | CCC(C)N(CC(C)C)C(=S)SC(NC(C)=O)C(Cl)(Cl)Cl (configuration not stated) | inactive: 70.8%
4 | COP1(=S)c2c(C)nn(CCC#N)c2N=C(c2ccc(F)cc2)N1C (configuration not stated) | inactive: 62%
5 | O=C(COc1ccccc1)OC1CN2CCC1CC2 (configuration not stated) | inactive: 104%
6 | O=P1(Nc2ncccn2)COc2ccccc2OC1 | inactive: 94.2%
7 | Cc1ccc(OCC(=O)OC2CN3CCC2CC3)cc1 (configuration not stated) | inactive: 94.1%
8 | O=P1(Nc2ccc(Br)cn2)COc2ccccc2OC1 | inactive: 98.3%
9 | Cc1nn(-c2ccccc2)c2c1P(=O)(N1CCOCC1)N(C)C(c1ccccc1)=N2 (configuration not stated) | inactive: 87.8%
10 | CC1(CBr)Cn2c(nc3ccccc3c2=O)S1 (configuration not stated) | inactive: 87.7%
11 | O=P1(Nc2ccccn2)COc2ccccc2OC1 | inactive: 69.6%
12 | Clc1n[nH]nc1-c1nn[nH][15n]1 | inactive: 105%
13 | Cc1cccc(OCC(=O)OC2CN3CCC2CC3)c1 (configuration not stated) | inactive: 95.3%
14 | CCOP1(=S)c2c(C)nn(CCC#N)c2N=C(c2ccc(F)cc2)N1C (configuration not stated) | inactive: 66.7%
15 | CCOP1(=S)c2c(C)nn(CCC#N)c2N=C(c2ccccc2F)N1C (configuration not stated) | inactive: 68.9%
16 | COC(=O)c1cc2c(s1)N=C(c1ccccc1)N(C)P2(=O)N1CCOCC1 (configuration not stated) | inactive: 85.2%
17 | O=P1(Nc2nc3ccc(Cl)cc3s2)COc2ccccc2O1 (configuration not stated) | inactive: 103%
18 | O=P(Nc1nccs1)(c1ccccc1)c1ccccc1 | inactive: 88.4%
19 | c1nnnn1CCn1cnnn1 | inactive: 89.2%
20 | O=C(OC1CN2CCC1CC2)c1cccc(Cl)c1 (configuration not stated) | inactive: 95.6%
21 | CC1CCN(C(=O)Oc2c(Cl)cc(Cl)c3cccnc23)CC1 | inactive: 83.9%
22 | CCc1nc2c(n1)c1c(non1O)c1c2no[n+]1[O-] | active: 2.17%
23 | O=[N+]([O-])c1cccc2n[nH]nc12 | inactive: 97.6%
24 | Oc1ccccc1CNc1ccccn1 | inactive: 98.8%
25 | Cc1c2non([O-])c-2c(C)[n+](=O)[n+]1[O-] | active: 0.46%
26 | CN1CCCC(OC(=O)C(c2ccccc2)c2ccccc2)C1 (configuration not stated) | inactive: 79.2%
27 | CCOP(=O)(Nc1ccccc1)OCC | inactive: 94.6%

Source: PubChem BioAssay AID598 (SRMLSC, 2007)
